Source: ChEMBL document CHEMBL1641477, “Shp2 protein tyrosine phosphatase inhibitor activity of estramustine phosphate and its triterpenoid analogs” (Bioorg Med Chem Lett, 2011)

Target: T1, Tyrosine-protein phosphatase non-receptor type 1 (Homo sapiens, UniProt P18031)
T1 sequence (P18031 whole entry): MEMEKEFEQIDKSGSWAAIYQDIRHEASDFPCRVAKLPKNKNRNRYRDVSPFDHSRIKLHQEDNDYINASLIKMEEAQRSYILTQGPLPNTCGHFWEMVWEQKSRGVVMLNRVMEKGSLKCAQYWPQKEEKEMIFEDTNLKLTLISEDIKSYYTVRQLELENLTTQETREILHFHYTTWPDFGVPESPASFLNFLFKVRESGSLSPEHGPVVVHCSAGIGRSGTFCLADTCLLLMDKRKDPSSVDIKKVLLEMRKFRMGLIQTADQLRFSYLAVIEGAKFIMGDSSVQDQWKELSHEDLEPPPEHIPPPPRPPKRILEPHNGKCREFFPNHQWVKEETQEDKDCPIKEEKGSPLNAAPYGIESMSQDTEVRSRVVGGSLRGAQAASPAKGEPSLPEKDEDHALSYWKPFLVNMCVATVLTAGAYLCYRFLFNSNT
Experiment: Inhibition of recombinant PTP1B

IC50: 45.8 µM
SMILES: CC1(C)[C@@H](O)CC[C@]2(C)[C@H]3C(=O)C=C4[C@@H]5C[C@@](C)(C(=O)O)CC[C@]5(C)CC[C@@]4(C)[C@]3(C)CC[C@@H]12 [ENOXOLONE]
